# CycPeptMPDB entries from one study

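Lipid, pH, incubation time, direction and concentration are not recorded in the data file. The list need not hold all peptides of the study. Entries at the database's floor value (log10 P of -10) are not listed.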

PAMPA measures passive passage through an artificial lipid membrane.
Permeability is given as log10 of P in cm/s; higher (less negative) is more permeable.

CCCN1CC(=O)N(C)[C@H](CC(C)C)C(=O)N(C)[C@H](CC(C)C)C(=O)N2CCC[C@@H]2C(=O)N[C@H](CC(C)C)C(=O)N[C@@H](Cc2ccccc2)C(=O)N2CCC[C@@H]2C1=O has PAMPA -4.89 (log10 cm/s).
CC(C)C[C@H]1C(=O)N[C@@H](Cc2ccccc2)C(=O)N2CCC[C@@H]2C(=O)N(C)[C@@H](C)C(=O)N(C)[C@@H](CC(C)C)C(=O)N(C)[C@@H](CC(C)C)C(=O)N2CCC[C@@H]2C(=O)N1C has PAMPA -4.95 (log10 cm/s).
CC(C)C[C@H]1NC(=O)[C@@H]2CCCN2C(=O)CN(Cc2ccccc2)C(=O)[C@@H](CC(C)C)NC(=O)[C@H](C)NC(=O)[C@H]2CCCN2C(=O)[C@H](Cc2ccccc2)NC1=O has PAMPA -6.27 (log10 cm/s).
CC(C)C[C@@H]1NC(=O)C[C@H](Cc2ccccc2)NC(=O)[C@@H]2CCCN2C(=O)[C@H](Cc2ccccc2)NC(=O)[C@@H](CC(C)C)N(C)C(=O)[C@@H]2CCCN2C(=O)[C@H](CC(C)C)N(C)C1=O has PAMPA -5.37 (log10 cm/s).
CC(C)C[C@@H]1NC(=O)[C@@H](CC(C)C)NC(=O)[C@@H](C)N(C)C(=O)[C@H](Cc2ccccc2)NC(=O)[C@@H](CC(C)C)NC(=O)[C@@H]2CCCN2C1=O has PAMPA -5.49 (log10 cm/s).
CC(C)C[C@@H]1C(=O)N(C)[C@H](CC(C)C)C(=O)N2CCC[C@@H]2C(=O)N(C)[C@H](CC(C)C)C(=O)N[C@@H](Cc2ccccc2)C(=O)N2CCC[C@H]2C(=O)N[C@@H](Cc2ccccc2)CC(=O)N1C has PAMPA -5.26 (log10 cm/s).
CCCN1CC(=O)N(C)[C@H](CC(C)C)C(=O)N(Cc2ccccc2)CC(=O)N2CCC[C@@H]2C(=O)N[C@H](CC(C)C)C(=O)N[C@@H](Cc2ccccc2)C(=O)N2CCC[C@H]2C1=O has PAMPA -5.64 (log10 cm/s).
CC(C)C[C@@H]1NC(=O)[C@@H](CC(C)C)NC(=O)[C@@H](C)NC(=O)[C@@H]2CCCN2C(=O)[C@H](Cc2ccccc2)NC(=O)[C@@H](CC(C)C)NC(=O)[C@@H]2CCCN2C1=O has PAMPA -6.69 (log10 cm/s).
CC(C)C[C@@H]1C(=O)N[C@H](CC(C)C)C(=O)N2CCC[C@H]2C(=O)N(C)[C@H](CC(C)C)C(=O)N[C@@H](Cc2ccccc2)C(=O)N[C@H](C)C(=O)N1C has PAMPA -5.58 (log10 cm/s).
CC(C)C[C@@H]1NC(=O)[C@H](C)N(C)C(=O)[C@@H]2CCCN2C(=O)[C@H](Cc2ccccc2)NC(=O)[C@@H](CC(C)C)NC(=O)[C@@H]2CCCN2C(=O)CN(Cc2ccccc2)C1=O has PAMPA -6.04 (log10 cm/s).
CC(C)C[C@@H]1C(=O)N(C)[C@H](CC(C)C)C(=O)N2CCC[C@@H]2C(=O)N(C)[C@H](CC(C)C)C(=O)N[C@@H](Cc2ccccc2)C(=O)N2CCC[C@H]2C(=O)N(C)[C@H](C)C(=O)N1C has PAMPA -5.14 (log10 cm/s).
CC(C)C[C@@H]1NC(=O)[C@@H](C)N(C)C(=O)[C@H](Cc2ccccc2)NC(=O)[C@@H](CC(C)C)N(C)C(=O)[C@@H]2CCCN2C(=O)CN(Cc2ccccc2)C1=O has PAMPA -5.09 (log10 cm/s).
CC(C)C[C@@H]1C(=O)N(C)[C@@H](CC(C)C)C(=O)N2CCC[C@H]2C(=O)N(Cc2ccccc2)CC(=O)N[C@@H](Cc2ccccc2)C(=O)N2CCC[C@H]2C(=O)N(C)[C@@H](C)C(=O)N1C has PAMPA -5.81 (log10 cm/s).
CC(C)C[C@H]1C(=O)N(Cc2ccccc2)CC(=O)N2CCC[C@@H]2C(=O)N(Cc2ccccc2)CC(=O)N[C@@H](Cc2ccccc2)C(=O)N(C)[C@@H](C)C(=O)N1C has PAMPA -5.43 (log10 cm/s).
CC(C)C[C@@H]1NC(=O)[C@H]2CCCN2C(=O)C[C@H](Cc2ccccc2)NC(=O)[C@@H](CC(C)C)NC(=O)C[C@H](Cc2ccccc2)NC(=O)[C@H]2CCCN2C(=O)[C@H](Cc2ccccc2)NC1=O has PAMPA -5.88 (log10 cm/s).
CC(C)C[C@@H]1NC(=O)[C@H](CC(C)C)N(C)C(=O)[C@H](C)N(C)C(=O)[C@H](Cc2ccccc2)NC(=O)CN(Cc2ccccc2)C(=O)[C@@H]2CCCN2C1=O has PAMPA -4.77 (log10 cm/s).
CC(C)C[C@@H]1NC(=O)[C@@H]2CCCN2C(=O)[C@@H](CC(C)C)N(C)C(=O)[C@H](CC(C)C)NC(=O)[C@@H](C)N(C)C(=O)[C@@H]2CCCN2C(=O)[C@H](Cc2ccccc2)NC1=O has PAMPA -5.70 (log10 cm/s).
CC(C)C[C@H]1NC(=O)[C@H](C)NC(=O)[C@@H]2CCCN2C(=O)[C@H](Cc2ccccc2)NC(=O)[C@H](CC(C)C)N(C)C(=O)[C@@H]2CCCN2C(=O)CN(Cc2ccccc2)C1=O has PAMPA -5.53 (log10 cm/s).

Excerpt, the final 2 entries:

Listed for CC(C)C[C@@H]1NC(=O)[C@@H]2CCCN2C(=O)[C@@H](CC(C)C)N(C)C(=O)[C@H](CC(C)C)NC(=O)[C@@H](C)N(C)C(=O)[C@@H]2CCCN2C(=O)[C@H](Cc2ccccc2)NC1=O: PAMPA -5.70 (log10 cm/s).
Listed for CC(C)C[C@H]1NC(=O)[C@H](C)NC(=O)[C@@H]2CCCN2C(=O)[C@H](Cc2ccccc2)NC(=O)[C@H](CC(C)C)N(C)C(=O)[C@@H]2CCCN2C(=O)CN(Cc2ccccc2)C1=O: PAMPA -5.53 (log10 cm/s).

Source: CycPeptMPDB (Li et al. 2023), which took these values from Townsend et al. 2020, doi:10.26434/chemrxiv.13335941.v1.